This assay addresses rat cardiac troponin I (cTnI), Ser22/23 bisphosphorylated (rat) (UniProt P23693). Put plainly: SEC-MALS. (Size exclusion chromatography separates by hydrodynamic size, large species first.)

Drawing on article PMC9826837, this text covers stoichiometry N for one substance.

On to “rat cardiac troponin C (cTnC) (from UniProt Q4PP99 1-161) (natural protein)”, for which the stoichiometry N – broadly, the number of molecules, sites or subunits per partner or assembly – is 1.
